# Data reported in PubChem BioAssay AID574 (The Scripps Research Institute Molecular Screening Center, 2007).
# Protein sequences, listed by entry. Tags and fused reporters are not part of them.
# UniProt P28566, whole entry: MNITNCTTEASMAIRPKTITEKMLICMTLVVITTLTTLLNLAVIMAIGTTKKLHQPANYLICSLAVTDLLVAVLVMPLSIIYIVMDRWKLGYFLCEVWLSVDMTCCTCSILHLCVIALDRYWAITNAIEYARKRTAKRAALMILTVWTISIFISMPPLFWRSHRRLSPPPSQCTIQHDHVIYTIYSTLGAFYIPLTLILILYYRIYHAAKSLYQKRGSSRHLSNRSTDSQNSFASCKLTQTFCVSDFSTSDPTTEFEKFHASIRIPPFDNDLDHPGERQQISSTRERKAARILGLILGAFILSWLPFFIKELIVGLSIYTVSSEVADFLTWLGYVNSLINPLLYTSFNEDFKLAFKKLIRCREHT
# This is a selection; strong and weak results do not stand in their true shares. Some of these compounds have results that are not shown, active ones among them. The source made the active and inactive calls.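 Rule for the calls: active = activation above a set limit, the screen-wide mean activation plus 3 SD (cut at about 8.5% in these data); inactive = the rest.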
# Molecular target: 5-hydroxytryptamine receptor 1E (Homo sapiens) (UniProt P28566)
# Test: 5-HT1E receptor agonists, primary screen, cell-based, HTS (AID 574);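 note: 100% = positive control agonist at 1 µM giving full maximal response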
# Details: CHO 5-HT1E Ga15 NFAT-bla reporter, FRET; at 6 µM; stronger effect = higher value; 0% DMSO wells, 100% control agonist wells
row,SMILES,activation
1,O=C(OC1CN2CCC1CC2)C(CO)(c1ccccc1)c1ccccc1 (configuration not stated),inactive: -0.5%
2,CN(C)c1cccc(C(=O)NCC2(N(C)C)CCCCC2)c1,inactive: 0.7%
